# Assays:
# [1] = test system: trypsin; experiment: Peptide stability in the presence of trypsin, RP-HPLC; type: in vitro ADME; conditions: 5 μg trypsin, pH 7.0, 30 minutes at 37.5° C.
# Protocol: (§1) This example describes peptide stability in the presence of pepsin, trypsin, a reducing agent, or elevated temperature. Peptides were first suspended in 500 µl of ddH2O to a stock concentration of 2 mg/ml. […] These reactions were then quenched with 5 μg of soybean trypsin inhibitor (I) and, in some cases, 10 mM dithiothreitol (DTT). […] Temperature stability was tested by incubating peptides in non-reducing conditions at 70° C. for 1 hour. Stability was evaluated by RP-HPLC.
# [2] = test system: pepsin; experiment: Peptide stability in the presence of pepsin, RP-HPLC; type: in vitro ADME; conditions: 20 μg pepsin, pH 1.05, 30 minutes at 37.5° C.
# Protocol: as §1
# [3] = Temperature stability at 70° C., RP-HPLC; type: physicochemical; conditions: non-reducing conditions, 70° C. for 1 hour
# Protocol: as §1
# [4] = Peptide stability to a reducing agent (DTT), RP-HPLC; type: physicochemical; conditions: 10 mM DTT in PBS, room temperature, 30 minutes
# Protocol: as §1
Sequence,Trypsin [1],Pepsin [2],Temperature (70° C.) [3],Reduction [4]
GSDCVRFWGKCSQTSDCCPHLACKSKWPRNICVWDGSVG [SEQ ID NO: 14],Not Resistant,Not Resistant,Resistant,Not Resistant
GSGHACYRNCWREGNDEETCKERC [SEQ ID NO: 40],Partially Resistant,,,Not Resistant
